Experimental data taken from patent USRE42013E1.

Sequences of proteins named here, by UniProt entry; tags and fusion partners are left off.
UniProt Q92847, whole entry: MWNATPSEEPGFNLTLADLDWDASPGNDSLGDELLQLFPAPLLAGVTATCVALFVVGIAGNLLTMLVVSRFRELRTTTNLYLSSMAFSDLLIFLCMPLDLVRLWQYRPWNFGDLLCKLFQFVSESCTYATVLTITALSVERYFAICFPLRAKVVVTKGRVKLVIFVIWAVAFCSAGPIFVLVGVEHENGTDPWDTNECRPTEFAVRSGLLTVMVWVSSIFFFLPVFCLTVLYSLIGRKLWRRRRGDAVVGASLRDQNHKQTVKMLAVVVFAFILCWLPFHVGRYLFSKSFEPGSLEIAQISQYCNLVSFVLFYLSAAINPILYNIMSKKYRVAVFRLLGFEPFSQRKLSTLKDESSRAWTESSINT
UniProt O43193, whole entry: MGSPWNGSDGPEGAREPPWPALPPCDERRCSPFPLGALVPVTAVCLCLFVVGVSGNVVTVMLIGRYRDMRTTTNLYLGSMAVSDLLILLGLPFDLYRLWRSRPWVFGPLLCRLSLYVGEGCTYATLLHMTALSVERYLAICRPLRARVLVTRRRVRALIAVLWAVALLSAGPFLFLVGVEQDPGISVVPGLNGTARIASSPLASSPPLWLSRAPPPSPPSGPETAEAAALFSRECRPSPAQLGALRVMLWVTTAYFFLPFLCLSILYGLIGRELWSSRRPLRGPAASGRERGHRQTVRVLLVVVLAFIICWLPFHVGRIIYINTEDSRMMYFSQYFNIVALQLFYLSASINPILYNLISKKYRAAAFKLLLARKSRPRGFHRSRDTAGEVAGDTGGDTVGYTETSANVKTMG

How the values were obtained:
[1] = biological target: human growth hormone secretagogue receptor (hGHS-R1a) (Homo sapiens, UniProt Q92847); experiment: Competitive radioligand binding assay (ghrelin receptor), [125I]-ghrelin displacement; conditions: for Ki: Table 3B, binding at human ghrelin receptor, [125I]-ghrelin displacement; for binding potency of linear (non-cyclized) analogues: linear analogues of compounds 10 and 133
motilin receptor = motilin receptor (Homo sapiens, UniProt O43193); experiment: Selectivity versus the motilin receptor
[2] = test system: gastric emptying in fasted rats; experiment: Gastric emptying in fasted rats (phenol red methylcellulose meal); assay type: in vivo, rat (Wistar)
[3] = test system: rats with post-operative ileus; assay type: in vivo, rat (Sprague-Dawley)
[4] = test system: pulsatile GH release in rat; experiment: Growth hormone response to test compounds in conscious, freely-moving rats
morphine-treated rats = experiment: Gastric emptying and gastrointestinal transit in model of opioid-delayed gastric emptying; conditions: i.v., 30 min after morphine 3 mg/kg s.c.
[5] = Metabolic stability in human plasma; conditions: 37° C., free amine or HCl salt, with or without PBS
[6] = test system: human cytochrome P450 enzymes; experiment: Interaction profile at human cytochrome P450 enzyme subtypes (other than cyp3A4); conditions: 0.0457 to 100 μM

Row | Structure (SMILES) | Ki [1] | further results
1 | CCC(C)C1NCCOc2ccccc2/C=C/CNC(=O)C(COCc2ccccc2)NC(=O)C(C)(C)NC1=O (stereo not shown) | 100 to 10000 nM | –
2 | CC[C@H](C)[C@@H]1NCCOc2ccccc2CCCNC(=O)[C@H](Cc2cccc(Cl)c2)NC(=O)C2(CCNC2)NC1=O (stereo partly shown) | < 100 nM | –
3 | CC[C@H](C)[C@@H]1NCCCCCCCCNC(=O)[C@@H](Cc2ccccc2)NC(=O)[C@@H](C)N(C)C1=O | – | Selectivity (motilin receptor): 28/1
4 | CC[C@H](C)[C@@H]1NCCOc2ccccc2/C=C/CNC(=O)[C@H](Cc2cccc(Cl)c2)NC(=O)C2(CCCC2)NC1=O | < 100 nM | –
5 | CCC(C)[C@@H]1NC[C@@H](C)Oc2ccccc2CCCNC(=O)[C@H](Cc2cccc(Cl)c2)NC(=O)C2(CCCC2)NC1=O (stereo partly shown) | < 100 nM | –
6 | CC(=O)N(CCOc1ccccc1CCCN)[C@@H](CC(C)C)C(=O)NC1(C(=O)N[C@@H](Cc2ccccc2)C(N)=O)CCCC1 | – | binding potency of linear (non-cyclized) analogues [1]: lack of binding potency
7 | CCC[C@@H](C(=O)N(C)CC(=O)N[C@H](Cc1ccccc1)C(N)=O)N(CCOc1ccccc1CCCN)C(C)=O | – | binding potency of linear (non-cyclized) analogues [1]: lack of binding potency
8 | C[C@@H]1CN[C@@H](C2CC2)C(=O)N(C)[C@H](C)C(=O)N[C@H](Cc2ccc(F)cc2)C(=O)NCCCc2ccccc2O1 | – | gastric emptying of a solid meal in naïve rat ([2]; i.v. immediately after meal, 15 min): significant gastric emptying in a dose-dependent manner; potency superior to metoclopramide in gastric emptying ([2]; naïve rats, i.v.): 100 fold; effect on postoperative ileus in comparison to POI+vehicle treated rats ([3]; 100 μg/kg i.v., n=5): significantly improves postoperative ileus; gastric emptying and intestinal transit in POI rats ([3]; 100 and 300 μg/kg i.v.): significantly increased gastric emptying and intestinal transit; IGF-1 levels ([4]; 1000 μg/kg dose): No changes in IGF-1 levels; effect on GH release ([4]; FIG. 9): lack of effect on GH release; effect on ghrelin-induced GH release ([4]; dosed 10 min prior to ghrelin): neither inhibits nor augments ghrelin-induced GH release; pulsatile GH release in comparison to vehicle controls ([4]; doses up to 1000 μg/kg i.v.): no significant difference in pulsatile GH release; opioid-delayed gastrointestinal transit (morphine-treated rats): effectively reversed in a dose-dependent manner; stable in human plasma for [5]: at least 24 hours; inhibitory activity at cyp450 enzymes tested, except cyp3A4 [6]: minimal inhibitory activity
9 | CC[C@H](C)[C@@H]1NCCOc2ccccc2/C=C/CNC(=O)[C@H](COCc2ccccc2)NC(=O)C(C)(C)NC1=O | 100 to 10000 nM | –
10 | CCC(C)C1NCC(C)Oc2ccccc2CCCNC(=O)C(Cc2cccc(Cl)c2)NC(=O)C2(CCCC2)NC1=O (stereo not shown) | < 100 nM | –
11 | CC[C@H](C)[C@@H]1NCCCc2ccccc2C=CCNC(=O)[C@@H](Cc2ccccc2)NC(=O)[C@@H](C)N(C)C1=O | – | Selectivity (motilin receptor): >800/1
12 | CC[C@H](C)[C@@H]1NCCCc2ccccc2/C=C/CNC(=O)[C@@H](Cc2ccc(F)cc2)NC(=O)[C@@H](C)N(C)C1=O | < 100 nM | –

Continued, in another order:

Row | Ki [1] | Structure (SMILES) | further results
13 | < 100 nM | CCC(C)C1NCCCc2ccccc2C=CCNC(=O)C(Cc2ccc(F)cc2)NC(=O)C(C)N(C)C1=O (stereo not shown) | –
14 | < 100 nM | CC[C@H](C)[C@@H]1NCCOc2ccccc2/C=C/CNC(=O)[C@H](Cc2cccc(C(F)(F)F)c2)NC(=O)C2(CCCC2)NC1=O | –
15 | < 100 nM | CC[C@H](C)[C@@H]1NCCOc2ccccc2/C=C/CNC(=O)[C@H](Cc2ccc(F)c(F)c2)NC(=O)C2(CCCC2)NC1=O | –
16 | < 100 nM | CCC(C)C1NCCOc2ccccc2/C=C/CNC(=O)C(Cc2cccc(Cl)c2)NC(=O)C2(CCCC2)NC1=O (stereo not shown) | –
17 | < 100 nM | CC[C@H](C)[C@@H]1NCCOc2ccccc2/C=C/CNC(=O)[C@H](Cc2cc(F)cc(F)c2)NC(=O)C2(CCCC2)NC1=O | –
18 | < 100 nM | C[C@@H]1C(=O)N[C@H](Cc2ccc(F)cc2)C(=O)NCCCc2ccccc2O[C@@H](C)CN[C@@H](C2CC2)C(=O)N1C | –
19 | < 100 nM | CC1C(=O)NC(Cc2ccc(F)cc2)C(=O)NCC2CC2c2ccccc2OCCNC(C2CC2)C(=O)N1C (stereo not shown) [compound 379] | –
20 | < 100 nM | CC(C)[C@@H]1NCCOc2ccccc2/C=C/CNC(=O)[C@H](Cc2ccccc2)NC(=O)C2(CCOC2)NC1=O (single isomer, unassigned) | –
21 | < 100 nM | CC[C@H](C)[C@@H]1NCCCc2ccccc2/C=C/CNC(=O)[C@H](Cc2cccc(Cl)c2)NC(=O)C2(CCCC2)NC1=O | –
